Chains of the proteins cited; added tags and fusions are not shown. Residues count along the entry.
UniProt Q15109, 364-404: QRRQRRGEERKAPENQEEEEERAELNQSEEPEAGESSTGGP

In patent publication US10729695B2, “Amino, amido and heterocyclic compounds as modulators of RAGE activity and uses thereof” (The Research Foundation for the State University of New York, priority 2013, dated 2020):

Molecular target: RAGE tail (Homo sapiens (Human), UniProt Q15109)
Test: RAGE tail fluorescence titration (Kd determination)
Details: binding to RAGE tail
Protocol: Binding affinities of small molecules for either CT-RAGE or FH1 are determined by performing fluorescence titrations to generate binding isotherms and standard SPR experiments.
A number of representative amino and amido compounds of this invention were or can be tested for their inhibitory activity.
(§1) Fluorescence quenching was used to determine binding.
A number of representative heterocylic compounds of this invention were or can be tested for their inhibitory activity.
as §1, §1

Kd [nM]	Compound
0.1 ± 0.05	COc1cc(NC(C)=O)c(Cl)cc1C(=O)Nc1nccs1 [CB-6]
3.1 ± 0.3	CC1=NN(c2nc3ccccc3[nH]2)C(=O)C1CCC(C)C (centres unmarked) [CB-10]
